# Results taken from ChEMBL document CHEMBL1139387, “Fragment-based discovery of the pyrazol-4-yl urea (AT9283), a multitargeted kinase inhibitor with potent aurora kinase activity” (J Med Chem, 2009).
# Sequences of proteins named here, by UniProt entry; tags and fusion partners are left off.
# UniProt Q96GD4, whole entry: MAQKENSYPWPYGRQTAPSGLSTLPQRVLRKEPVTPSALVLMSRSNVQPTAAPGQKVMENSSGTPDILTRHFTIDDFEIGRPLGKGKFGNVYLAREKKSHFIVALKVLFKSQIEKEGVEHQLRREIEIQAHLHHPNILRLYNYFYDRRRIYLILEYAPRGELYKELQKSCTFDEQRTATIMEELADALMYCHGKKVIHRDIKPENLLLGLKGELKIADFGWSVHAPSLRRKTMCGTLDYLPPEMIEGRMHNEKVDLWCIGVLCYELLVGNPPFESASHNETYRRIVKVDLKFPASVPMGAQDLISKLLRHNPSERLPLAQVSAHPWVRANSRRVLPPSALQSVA
# UniProt P35968, whole entry: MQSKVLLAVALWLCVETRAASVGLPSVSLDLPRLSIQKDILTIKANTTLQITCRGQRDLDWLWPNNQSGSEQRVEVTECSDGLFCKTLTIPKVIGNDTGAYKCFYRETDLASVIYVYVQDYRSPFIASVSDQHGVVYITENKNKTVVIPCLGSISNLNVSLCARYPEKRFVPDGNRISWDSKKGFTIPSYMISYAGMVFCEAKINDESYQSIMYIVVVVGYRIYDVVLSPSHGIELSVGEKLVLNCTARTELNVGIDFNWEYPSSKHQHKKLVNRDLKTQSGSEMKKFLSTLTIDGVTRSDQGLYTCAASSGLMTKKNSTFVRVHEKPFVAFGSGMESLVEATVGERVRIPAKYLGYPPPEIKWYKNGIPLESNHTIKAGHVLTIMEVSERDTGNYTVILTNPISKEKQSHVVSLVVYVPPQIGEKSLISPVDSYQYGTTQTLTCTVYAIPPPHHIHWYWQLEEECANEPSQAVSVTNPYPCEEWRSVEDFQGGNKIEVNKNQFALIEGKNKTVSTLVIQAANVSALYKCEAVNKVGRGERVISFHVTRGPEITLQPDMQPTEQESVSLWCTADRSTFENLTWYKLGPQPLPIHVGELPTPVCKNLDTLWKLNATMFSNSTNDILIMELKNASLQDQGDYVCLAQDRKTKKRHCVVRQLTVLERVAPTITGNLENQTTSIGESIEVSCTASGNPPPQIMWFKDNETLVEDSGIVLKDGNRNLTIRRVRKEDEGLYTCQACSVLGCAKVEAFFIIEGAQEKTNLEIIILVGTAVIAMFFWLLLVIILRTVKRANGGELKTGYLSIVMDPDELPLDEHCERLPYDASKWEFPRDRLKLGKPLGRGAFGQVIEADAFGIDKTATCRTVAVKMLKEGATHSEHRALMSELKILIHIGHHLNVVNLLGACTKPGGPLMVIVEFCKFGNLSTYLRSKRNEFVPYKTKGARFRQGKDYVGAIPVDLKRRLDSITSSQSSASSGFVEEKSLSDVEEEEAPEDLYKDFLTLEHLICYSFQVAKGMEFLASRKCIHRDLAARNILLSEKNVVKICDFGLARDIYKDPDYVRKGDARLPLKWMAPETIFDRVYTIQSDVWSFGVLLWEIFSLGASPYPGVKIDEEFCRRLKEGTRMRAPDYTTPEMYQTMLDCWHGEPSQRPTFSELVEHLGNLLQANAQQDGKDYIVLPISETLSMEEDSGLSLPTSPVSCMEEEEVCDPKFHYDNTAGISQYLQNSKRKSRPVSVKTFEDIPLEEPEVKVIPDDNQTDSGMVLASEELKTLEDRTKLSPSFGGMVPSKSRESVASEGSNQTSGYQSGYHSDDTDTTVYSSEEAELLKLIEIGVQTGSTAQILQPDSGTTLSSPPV
# Experiments:
# Aurora kinase B = Aurora kinase B (Homo sapiens, UniProt Q96GD4); assay: Inhibition of Aurora B at 3.0 nM
# [1] = target: Proto-oncogene tyrosine-protein kinase Src (Homo sapiens, UniProt P12931, T341M); assay: Inhibition of SRC T341M mutant
# [2] = target: Vascular endothelial growth factor receptor 2 (Homo sapiens, UniProt P35968); assay: Inhibition of VEGFR2
inhibition (Aurora kinase B) [%],IC50 [1] [nM],IC50 [2] [nM],Compound
58,,,O=C(Nc1c[nH]nc1-c1nc2ccc(CN3CCOCC3)cc2[nH]1)NC1CC1 [AT-9283]
,10,10,O=C(Nc1c[nH]nc1-c1nc2cc(CN3CCOCC3)ccc2[nH]1)NC1CC1 [AT-9283]
